The chains behind the UniProt entries cited, without tags or fusion partners. Where a name states a change or a piece, a line headed by the entry shows the natural chain unless it says otherwise. Residues count along the entry.
UniProt Q9Y5X5, 103-522: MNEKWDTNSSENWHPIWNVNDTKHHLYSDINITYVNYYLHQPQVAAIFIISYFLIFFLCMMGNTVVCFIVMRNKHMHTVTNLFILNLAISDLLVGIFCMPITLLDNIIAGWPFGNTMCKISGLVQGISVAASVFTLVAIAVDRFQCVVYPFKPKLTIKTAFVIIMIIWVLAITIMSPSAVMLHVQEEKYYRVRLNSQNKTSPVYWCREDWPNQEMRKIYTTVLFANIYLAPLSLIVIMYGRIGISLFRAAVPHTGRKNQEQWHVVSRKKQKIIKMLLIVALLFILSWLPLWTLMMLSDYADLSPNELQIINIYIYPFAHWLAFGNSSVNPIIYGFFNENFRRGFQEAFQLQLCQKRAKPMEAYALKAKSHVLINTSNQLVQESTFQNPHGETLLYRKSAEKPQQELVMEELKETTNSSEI
UniProt P49146, whole entry: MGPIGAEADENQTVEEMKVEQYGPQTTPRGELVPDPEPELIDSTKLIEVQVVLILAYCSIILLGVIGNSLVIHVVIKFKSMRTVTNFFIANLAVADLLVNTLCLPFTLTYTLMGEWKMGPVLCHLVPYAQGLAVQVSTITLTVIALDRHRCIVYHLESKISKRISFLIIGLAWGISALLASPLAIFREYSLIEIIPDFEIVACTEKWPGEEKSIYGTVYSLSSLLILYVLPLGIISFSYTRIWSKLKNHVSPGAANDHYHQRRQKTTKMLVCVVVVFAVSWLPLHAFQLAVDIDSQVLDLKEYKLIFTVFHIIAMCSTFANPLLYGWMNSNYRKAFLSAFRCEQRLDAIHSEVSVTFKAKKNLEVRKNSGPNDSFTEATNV
UniProt P25929, whole entry: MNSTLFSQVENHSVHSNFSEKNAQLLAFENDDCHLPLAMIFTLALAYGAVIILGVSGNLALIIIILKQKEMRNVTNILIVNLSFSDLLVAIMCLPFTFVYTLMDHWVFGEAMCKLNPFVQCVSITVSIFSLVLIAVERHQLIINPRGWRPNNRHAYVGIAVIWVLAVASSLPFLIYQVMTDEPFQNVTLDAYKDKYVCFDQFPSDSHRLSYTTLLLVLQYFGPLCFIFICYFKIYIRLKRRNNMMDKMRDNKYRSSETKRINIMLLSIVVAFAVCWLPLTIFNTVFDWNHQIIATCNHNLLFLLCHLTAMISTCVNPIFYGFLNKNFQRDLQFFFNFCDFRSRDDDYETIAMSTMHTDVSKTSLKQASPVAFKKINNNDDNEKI

In publication PMC6751662, “Pharmacological and functional similarities of the human neuropeptide Y system in C. elegans challenges phylogenetic views on the FLP/NPR system” (Cell Communication and Signaling : CCS, 2019):

How the values were obtained:
NPFF2R = molecular target: T1, NPFF2R (Homo sapiens, UniProt Q9Y5X5); test: IP accumulation assay, chimeric GαΔ6qi4myr, NPFF2R; type: cell-based; details: chimeric GαΔ6qi4myr co-transfected, transiently transfected HEK293 cells, mean of at least three independent experiments
T1 construct: expressed in transfected cells; host or cells: HEK293, transient

NPR-11 = molecular target: T2, NPR-11 (Caenorhabditis elegans, UniProt Q18179); test: cAMP reporter gene assay, Gi/o (inhibition of forskolin-induced cAMP), NPR-11; type: cell-based, C. elegans; details: 1 µM forskolin set to 1.00, transiently transfected HEK293 cells, mean of at least three independent experiments
T2 construct: expressed in transfected cells; host or cells: HEK293, transient
T2 sequence (Q18179 1-402): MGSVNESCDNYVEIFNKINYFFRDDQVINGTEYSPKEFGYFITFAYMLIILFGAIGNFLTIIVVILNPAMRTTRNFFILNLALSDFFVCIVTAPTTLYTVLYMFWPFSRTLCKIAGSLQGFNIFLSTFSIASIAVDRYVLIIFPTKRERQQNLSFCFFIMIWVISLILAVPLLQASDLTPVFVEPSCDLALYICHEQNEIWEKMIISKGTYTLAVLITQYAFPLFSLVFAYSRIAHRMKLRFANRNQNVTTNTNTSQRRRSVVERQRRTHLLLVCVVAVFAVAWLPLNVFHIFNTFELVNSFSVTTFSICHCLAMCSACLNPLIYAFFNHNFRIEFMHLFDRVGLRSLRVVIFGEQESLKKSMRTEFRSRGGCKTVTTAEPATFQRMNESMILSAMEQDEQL

QRFPR = molecular target: T3, QRFPR (Homo sapiens, UniProt Q96P65); test: IP accumulation assay, endogenous Gαq coupling, QRFPR; type: cell-based; details: transiently transfected HEK293 cells, mean of at least three independent experiments
T3 construct: expressed in transfected cells; host or cells: HEK293, transient
T3 sequence (Q96P65 1-431): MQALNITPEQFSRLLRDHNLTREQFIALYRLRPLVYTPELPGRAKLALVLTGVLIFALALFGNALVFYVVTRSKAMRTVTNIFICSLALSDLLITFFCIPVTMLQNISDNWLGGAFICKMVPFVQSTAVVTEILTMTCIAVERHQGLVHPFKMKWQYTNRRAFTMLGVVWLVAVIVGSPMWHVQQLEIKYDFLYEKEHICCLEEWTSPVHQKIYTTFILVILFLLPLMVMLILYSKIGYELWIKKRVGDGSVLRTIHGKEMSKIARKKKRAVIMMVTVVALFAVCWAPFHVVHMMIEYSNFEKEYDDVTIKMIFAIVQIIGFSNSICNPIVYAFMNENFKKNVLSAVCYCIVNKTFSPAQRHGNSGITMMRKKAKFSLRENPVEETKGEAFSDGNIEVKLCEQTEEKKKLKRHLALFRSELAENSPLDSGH

Y2R = molecular target: T4, Y2R (Homo sapiens, UniProt P49146); test: IP accumulation assay, chimeric GαΔ6qi4myr, Y2R; type: cell-based; details: chimeric GαΔ6qi4myr co-transfected, transiently transfected HEK293 cells, mean of at least three independent experiments
T4 construct: expressed in transfected cells; host or cells: HEK293, transient

PrRPR = molecular target: T5, PrRPR (Homo sapiens, UniProt P49683); test: IP accumulation assay, endogenous Gαq coupling, PrRPR; type: cell-based; details: transiently transfected HEK293 cells, mean of at least three independent experiments
T5 construct: expressed in transfected cells; host or cells: HEK293, transient
T5 sequence (P49683 1-370): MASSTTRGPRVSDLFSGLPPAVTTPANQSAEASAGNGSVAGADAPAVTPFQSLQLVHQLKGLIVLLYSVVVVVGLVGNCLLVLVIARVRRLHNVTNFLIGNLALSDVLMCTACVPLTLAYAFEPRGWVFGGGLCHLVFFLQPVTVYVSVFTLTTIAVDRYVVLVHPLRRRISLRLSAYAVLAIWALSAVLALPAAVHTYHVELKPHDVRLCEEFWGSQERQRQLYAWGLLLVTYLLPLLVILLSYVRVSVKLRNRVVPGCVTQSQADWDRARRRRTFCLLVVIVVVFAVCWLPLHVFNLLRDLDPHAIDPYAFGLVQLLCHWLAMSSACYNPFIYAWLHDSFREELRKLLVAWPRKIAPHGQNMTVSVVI

Y1R = molecular target: T6, Y1R (Homo sapiens, UniProt P25929); test: IP accumulation assay, chimeric GαΔ6qi4myr, Y1R; type: cell-based; details: chimeric GαΔ6qi4myr co-transfected, transiently transfected HEK293 cells, mean of at least three independent experiments
T6 construct: expressed in transfected cells; host or cells: HEK293, transient

NPR-1 = molecular target: T7, NPR-1 (Caenorhabditis elegans, UniProt Q18534); test: cAMP reporter gene assay, Gi/o (inhibition of forskolin-induced cAMP), NPR-1; type: cell-based, C. elegans; parameters: host or cells: HEK293; details: inhibition of cAMP production induced by 1 µM forskolin (set to 1.00), lower = higher Gi/o activity, transiently transfected HEK293 cells, mean of at least three independent experiments
T7 sequence (Q18534 1-457): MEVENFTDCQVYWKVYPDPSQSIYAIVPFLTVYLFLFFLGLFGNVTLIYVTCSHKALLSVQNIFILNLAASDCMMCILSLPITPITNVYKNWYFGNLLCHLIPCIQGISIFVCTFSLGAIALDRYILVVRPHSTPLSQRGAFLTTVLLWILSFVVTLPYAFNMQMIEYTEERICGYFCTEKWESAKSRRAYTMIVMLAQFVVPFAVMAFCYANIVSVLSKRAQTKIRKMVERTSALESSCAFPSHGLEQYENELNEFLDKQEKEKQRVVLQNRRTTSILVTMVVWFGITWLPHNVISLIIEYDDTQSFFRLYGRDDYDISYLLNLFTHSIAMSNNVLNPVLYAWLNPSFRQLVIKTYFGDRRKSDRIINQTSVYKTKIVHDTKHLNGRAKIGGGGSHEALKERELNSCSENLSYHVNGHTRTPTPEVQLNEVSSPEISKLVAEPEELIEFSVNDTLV

FLFQPQRF-NH2 [NPFF, human neuropeptide FF, reference compound]
IP accumulation, x-fold of basal (mean), NPFF2R (NPFF2R; 0.1 µM peptide): 2.33 x-fold of basal
IP accumulation, x-fold of basal (mean), NPFF2R (NPFF2R; 10 µM peptide): 2.28 x-fold of basal
cAMP, x-fold of forskolin (mean), NPR-11 (NPR-11; 0.1 µM peptide): 0.95 x-fold of forskolin
cAMP, x-fold of forskolin (mean), NPR-11 (NPR-11; 10 µM peptide): 0.78 x-fold of forskolin
IP accumulation, x-fold of basal (mean), QRFPR# (QRFPR; 0.1 µM peptide): 0.58 x-fold of basal
IP accumulation, x-fold of basal (mean), QRFPR# (QRFPR; 10 µM peptide): 0.67 x-fold of basal
IP accumulation, x-fold of basal (mean), Y2R (Y2R; 0.1 µM peptide): 0.76 x-fold of basal
IP accumulation, x-fold of basal (mean), Y2R (Y2R; 10 µM peptide): 0.98 x-fold of basal
IP accumulation, x-fold of basal (mean), PrRPR# (PrRPR; 0.1 µM peptide): 0.89 x-fold of basal
IP accumulation, x-fold of basal (mean), PrRPR# (PrRPR; 10 µM peptide): 1.28 x-fold of basal
IP accumulation, x-fold of basal (mean), Y1R (Y1R; 0.1 µM peptide): 0.90 x-fold of basal
IP accumulation, x-fold of basal (mean), Y1R (Y1R; 10 µM peptide): 0.99 x-fold of basal
cAMP, x-fold of forskolin (mean), NPR-1 (NPR-1; 0.1 µM peptide): 1.27 x-fold of forskolin
cAMP, x-fold of forskolin (mean), NPR-1 (NPR-1; 10 µM peptide): 0.80 x-fold of forskolin
